Measurements taken from ChEMBL document CHEMBL1687782, “High-resolution crystal structure of the subclass B3 metallo-beta-lactamase BJP-1: rational basis for substrate specificity and interaction with sulfonamides” (Antimicrob Agents Chemother, 2010).

How the values were obtained:
[1] = system: Bradyrhizobium japonicum; experiment: Activity at Bradyrhizobium japonicum metallo-beta-lactamase BJP-1
[2] = system: Bradyrhizobium japonicum; experiment: Ratio of Kcat to Km for Bradyrhizobium japonicum metallo-beta-lactamase BJP-1
[3] = system: Stenotrophomonas maltophilia; experiment: Activity at Stenotrophomonas maltophilia 1SML metallo-beta-lactamase L1
[4] = system: Stenotrophomonas maltophilia; experiment: Ratio of Kcat to Km for Stenotrophomonas maltophilia 1SML metallo-beta-lactamase L1

Row | Structure (SMILES) | Km [1] [µM] | kcat/Km [2] | Km [3] [µM] | kcat/Km [4]
1 | CC(=O)OCC1=C(C(=O)O)N2C(=O)[C@@H](NC(=O)Cc3cccs3)[C@H]2SC1 | 230 | 5.8 ×10⁵ /M/s | 8.9 | 9.2 ×10⁶ /M/s
2 | CC(C)(O/N=C(\C(=O)N[C@@H]1C(=O)N2C(C(=O)[O-])=C(C[n+]3ccccc3)CS[C@H]12)c1csc(N)n1)C(=O)O | > 700 | 4.3 ×10³ /M/s | 145 | 2 ×10⁵ /M/s
3 | C[C@@H](O)[C@H]1C(=O)N2C(C(=O)O)=C(S[C@@H]3CN[C@H](C(=O)N(C)C)C3)[C@H](C)[C@H]12 | 190 | 8.3 ×10⁵ /M/s | 10 | 4.5 ×10⁶ /M/s
